The values below are quoted from earlier work in PMC11999338, “Factor XI localization in human deep venous thrombus and function of activated factor XI on venous thrombus formation and hemostasis” (Research and Practice in Thrombosis and Haemostasis, 2025).

On the set-up of this series: method as in PMID 35385695. The following applies: patients with atrial fibrillation; asundexian 50 mg, once daily; cited from earlier work.

With asundexian, the bleeding rate is given as 0.4%.
